Sequences of proteins named here, by UniProt entry; tags and fusion partners are left off. Residues count along the entry.
UniProt P47871, 26-477: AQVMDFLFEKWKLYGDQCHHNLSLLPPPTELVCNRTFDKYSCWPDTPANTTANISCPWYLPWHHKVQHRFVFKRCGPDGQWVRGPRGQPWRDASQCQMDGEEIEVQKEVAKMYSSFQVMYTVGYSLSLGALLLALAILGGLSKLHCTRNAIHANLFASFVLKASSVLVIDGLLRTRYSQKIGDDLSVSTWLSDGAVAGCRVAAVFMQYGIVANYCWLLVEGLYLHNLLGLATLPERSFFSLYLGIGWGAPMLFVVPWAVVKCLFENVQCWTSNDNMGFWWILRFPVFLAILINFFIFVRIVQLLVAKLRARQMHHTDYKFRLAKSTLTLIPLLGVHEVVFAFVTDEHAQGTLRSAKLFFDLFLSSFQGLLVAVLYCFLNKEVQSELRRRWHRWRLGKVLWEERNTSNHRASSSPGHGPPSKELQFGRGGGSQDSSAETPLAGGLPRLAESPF
UniProt P43220, 24-463: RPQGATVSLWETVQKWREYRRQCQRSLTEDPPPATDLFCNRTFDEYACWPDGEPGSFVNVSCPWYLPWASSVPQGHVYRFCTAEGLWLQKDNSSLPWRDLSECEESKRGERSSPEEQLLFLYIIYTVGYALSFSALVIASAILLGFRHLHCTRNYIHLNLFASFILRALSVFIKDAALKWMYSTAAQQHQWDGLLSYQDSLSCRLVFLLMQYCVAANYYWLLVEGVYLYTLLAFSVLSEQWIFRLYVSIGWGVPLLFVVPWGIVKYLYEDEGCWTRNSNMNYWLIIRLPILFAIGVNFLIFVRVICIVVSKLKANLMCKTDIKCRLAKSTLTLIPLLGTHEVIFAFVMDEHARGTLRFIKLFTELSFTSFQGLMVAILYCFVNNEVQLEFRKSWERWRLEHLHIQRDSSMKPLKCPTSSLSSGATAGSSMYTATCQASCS

According to US20250129135A1, “Multi-Agonist and Use Thereof” (priority 2021, published 2025):

Columns and labels:
Human GIP R = molecular target: T1, Human GIP R (Homo sapiens, UniProt P48546); assay: cAMP (HTRF) activity in CHO cells stably overexpressing GIP receptor; type: cell-based; details: EC50 of human GIP / EC50 of compound
T1 construct: expressed in transfected cells; host or cells: CHO
T1 sequence (P48546 22-466): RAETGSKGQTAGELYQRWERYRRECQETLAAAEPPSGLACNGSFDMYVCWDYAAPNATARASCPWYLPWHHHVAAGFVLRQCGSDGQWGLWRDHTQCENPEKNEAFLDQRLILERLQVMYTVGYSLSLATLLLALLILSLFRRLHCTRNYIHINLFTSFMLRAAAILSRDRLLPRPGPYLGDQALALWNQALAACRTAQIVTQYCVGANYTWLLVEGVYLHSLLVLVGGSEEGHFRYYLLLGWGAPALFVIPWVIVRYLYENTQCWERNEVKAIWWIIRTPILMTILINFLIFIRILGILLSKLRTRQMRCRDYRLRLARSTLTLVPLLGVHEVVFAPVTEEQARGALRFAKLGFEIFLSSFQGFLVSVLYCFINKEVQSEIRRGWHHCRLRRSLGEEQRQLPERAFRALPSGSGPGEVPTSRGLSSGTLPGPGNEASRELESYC
Outline: (§1)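 Cells in HBSS are exposed to compound for 60 min at room temperature, followed by 60 min with detection reagent. EC50 (nM) is taken from concentration-response curves.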

Human GCG R = molecular target: T2, Human GCG R (Homo sapiens, UniProt P47871); assay: cAMP (HTRF) activity in HEK-293 cells stably overexpressing human GCG receptor; type: cell-based; details: EC50 of human GCG / EC50 of compound
T2 construct: expressed in transfected cells; host or cells: HEK-293
Outline: as §1

C57 BL/6J DIO mice = assay: In vivo pharmacodynamics in high-fat diet induced obesity (DIO) mice; parameters: species or system mouse; details: Mean±SEM; for Weight change: Table 6-1; for LDL-C / TC (total cholesterol) / TG (plasma triglycerides): Table 7-1
Text: High-fat diet induced obesity (DIO) mice have characteristics such as obesity, elevated blood sugar, insulin resistance, and lipid abnormalities, all of which are very significant metabolic syndromes similar to a human body. The effects of the compounds of the present application on body weight, food intake, blood sugar, and lipids in C57 BL/6J DIO mice were studied.
Obesity was induced in mice by feeding with a high-fat diet (60 kcal % of calories from fat). […] After grouping, one animal was raised in each cage for one week, during which each of the animals was injected subcutaneously (S.C.) with a solvent (1×PBS, 5 ml/kg) to pre-adapt the experimental operation process.
After the preparation of animals, vehicle control or compounds were administered to groups of animals by subcutaneous injection, in which the compounds were dissolved in 1×PBS, the dosage was 5 ml/kg, and the administration operation was started at 9:00 am and conducted once every three days (Q3D) for 15 days. Throughout the entire experimental study, animal weight and food intake were measured daily before administration, and compared with initial weight and food intake of the same animal before administration to calculate a percentage change in animal weight (%) and cumulative food intake, so as to evaluate the impact of compounds on changes in body weight and food intake.
At the end point of the experiment (Day 15), the body weight of the mice was measured, and then fasting blood glucose was measured by taking blood from the tail tip of broken tail without anesthesia. After the blood collection, the animals were anesthetized with CO2 and euthanized. Then, blood was taken from the heart and plasma was separated by centrifugation. The plasma was used to measure total cholesterol (TC), low-density lipoprotein cholesterol (LDL-C), triglycerides (TG), and blood insulin content. The liver was separated for homogenization, and then centrifuged to obtain the supernatant for determining triglyceride content in the liver.
All results were expressed in Mean±SEM, and the results were analyzed by one-way ANOVA using GraphPad Prism 5 software, followed by Dunnett's post hoc test compared to the Vehicle control group. The difference at the p<0.05 level was considered statistically significant.

3T3-L1 adipocytes = test system: 3T3-L1 adipocytes
Outline: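 Mouse 3T3-L1 preadipocytes were differentiated with IBMX, dexamethasone and insulin for 5 days, then insulin plus 10 uM rosiglitazone for 3 days, then 10% FBS medium for 2–3 days. Mature adipocytes received 10-point, 3-fold compound dilutions for 60 min at room temperature. cAMP was read by kit detection reagent after a further 60 min, with concentration-effect curves fitted.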

[1] = test system: human primary liver cells; type: cell-based
Outline: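 Human primary hepatocytes, thawed at 37° C and resuspended in HBSS, exposed to compound for 60 min at room temperature. Detection reagent then added for 60 min before cAMP readout.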

RIN-m5F cells = type: cell-based, rat
Outline: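 cAMP production measured in RIN-m5F cells resuspended in HBSS; compounds incubated 60 min at room temperature, then detection reagent added for a further 60 min before read-out.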

Human GLP-1R = Human GLP-1R (Homo sapiens, UniProt P43220); assay: cAMP (HTRF) activity in HEK-293 cells stably overexpressing human GLP-1 receptor; type: cell-based; parameters: expressed in transfected cells; host or cells: HEK-293
Outline: as §1

CC[C@H](C)[C@H](NC(=O)[C@H](Cc1ccccc1)NC(=O)[C@H](C)NC(=O)C(C)(C)NC(=O)[C@H](CCC(N)=O)NC(=O)[C@H](C)NC(=O)[C@H](CCCCNC(=O)COCCOCCNC(=O)COCCOCCNC(=O)CC[C@H](NC(=O)CCCCCCCCCCCCCCCCCCC(=O)O)C(=O)O)NC(=O)[C@H](CCCCN)NC(=O)[C@H](CC(=O)O)NC(=O)[C@H](CC(C)C)NC(=O)[C@H](Cc1ccccc1)NC(=O)[C@@H](NC(=O)[C@H](CO)NC(=O)[C@H](Cc1ccc(O)cc1)NC(=O)[C@H](CC(=O)O)NC(=O)[C@H](CO)NC(=O)[C@@H](NC(=O)[C@](C)(Cc1ccccc1F)NC(=O)[C@@H](NC(=O)CNC(=O)[C@H](CCC(N)=O)NC(=O)C(C)(C)NC(=O)[C@@H](N)Cc1ccc(O)cc1)[C@@H](C)O)[C@@H](C)O)[C@@H](C)CC)C(=O)N[C@@H](CCC(=O)O)C(=O)N[C@@H](Cc1ccccc1)C(=O)N[C@@H](CC(C)C)C(=O)N[C@@H](CC(C)C)C(=O)N[C@@H](CCC(=O)O)C(=O)N[C@H](C(=O)NCC(=O)N1CCC[C@H]1C(=O)N[C@@H](CO)C(=O)N[C@@H](CO)C(=O)NCC(=O)N[C@@H](C)C(=O)N1CCC[C@H]1C(=O)N1CCC[C@H]1C(=O)NC1(C(=O)N[C@@H](CO)C(N)=O)CC1)[C@@H](C)O [Compound 9]
Human GIP R Rel. A (Relative Activity) (Human GIP R): 385.11%
Human GCG R Rel. A (Relative Activity) (Human GCG R): 91.94%
Weight change (C57 BL/6J DIO mice; 3 nmol/kg s.c. Q3D for 15 days): −17.6 ± 1.51%
Weight change (C57 BL/6J DIO mice; 10 nmol/kg s.c. Q3D for 15 days): −21.5 ± 1.02%
Weight change (C57 BL/6J DIO mice; 30 nmol/kg s.c. Q3D for 15 days): −35.4 ± 3.61%
LDL-C (C57 BL/6J DIO mice; 3 nmol/kg, Day 15): 0.59 ± 0.024 mM
TC (total cholesterol) (C57 BL/6J DIO mice; 3 nmol/kg, Day 15): 4.00 ± 0.179 mM
TG (plasma triglycerides) (C57 BL/6J DIO mice; 3 nmol/kg, Day 15): 0.92 ± 0.063 mM
LDL-C (C57 BL/6J DIO mice; 30 nmol/kg, Day 15): 0.51 ± 0.028 mM
TC (total cholesterol) (C57 BL/6J DIO mice; 30 nmol/kg, Day 15): 2.72 ± 0.106 mM
TG (plasma triglycerides) (C57 BL/6J DIO mice; 30 nmol/kg, Day 15): 0.70 ± 0.023 mM
Blood sugar (fasting blood glucose) (C57 BL/6J DIO mice; Table 8-1, 3 nmol/kg, Day 15): 97.9 ± 4.07 mg/dL
Insulin (blood) (C57 BL/6J DIO mice; Table 8-1, 3 nmol/kg, Day 15): 25.2 ± 6.14 mIU/L
EC50 (3T3-L1 adipocytes; read-out: EC50 on mouse 3T3-L1 adipocyte, cAMP, at least 3 independent tests): 19.8 nM
Rel. A (Relative Activity) on 3T3-L1 adipocyte (3T3-L1 adipocytes; relative to GIP): 19.25%
EC50 ([1]; cAMP, at least 3 independent tests, read-out: EC50 on human primary liver cells): 3.98 nM
Rel. A (Relative Activity) on human primary liver cells ([1]; relative to GCG): 97.86%
EC50 (RIN-m5F cells; cAMP, at least 3 independent tests, read-out: EC50 on RIN-m5F rat pancreatic islet tumor cells): 0.322 nM
Rel. A (Relative Activity) on RIN-m5F (RIN-m5F cells; relative to GLP-1(7-37)): 320.50%
EC50 (Human GLP-1R): 0.017 nM
Human GLP-1R Rel. A (Relative Activity) (Human GLP-1R; EC50 of human GLP-1 (7-37) / EC50 of compound): 258.82%
